According to the NIST ThermoML archive (doi:10.1016/j.jct.2014.07.003):

Experiment: mn = molality of the nth substance listed, in mol/kg
Conditions: 99 kPa, Liquid, Alternating current cell with electrodes, m1 = 0.01

CCC[N+](CCC)(CCC)CCC.[Br-] [tetrapropylammonium bromide] + O
Conditions | electrical conductivity [S/m]
288.15 K | 0.117
293.15 K | 0.0912
298.15 K | 0.0847
303.15 K | 0.0839
308.15 K | 0.0868
313.15 K | 0.0882
318.15 K | 0.0911
